Data reported in PMC3958349.

Biological target: T1, GFP-p65, Q04206
T1 chain: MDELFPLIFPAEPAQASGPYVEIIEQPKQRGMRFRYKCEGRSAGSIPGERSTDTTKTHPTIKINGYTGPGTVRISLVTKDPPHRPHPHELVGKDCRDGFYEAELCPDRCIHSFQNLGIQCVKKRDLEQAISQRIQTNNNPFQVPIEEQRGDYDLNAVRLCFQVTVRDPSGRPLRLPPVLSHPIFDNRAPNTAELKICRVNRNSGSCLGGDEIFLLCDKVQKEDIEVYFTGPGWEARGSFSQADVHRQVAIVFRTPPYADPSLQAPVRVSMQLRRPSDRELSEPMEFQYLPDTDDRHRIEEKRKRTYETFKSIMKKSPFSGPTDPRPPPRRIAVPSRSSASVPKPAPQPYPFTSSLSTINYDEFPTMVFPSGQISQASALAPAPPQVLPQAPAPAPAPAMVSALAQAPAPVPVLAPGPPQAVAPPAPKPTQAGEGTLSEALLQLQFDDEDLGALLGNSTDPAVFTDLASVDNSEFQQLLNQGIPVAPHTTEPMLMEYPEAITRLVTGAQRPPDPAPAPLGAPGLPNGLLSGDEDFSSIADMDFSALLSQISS
Test: number and brightness (N&B) analysis; living 3617 cells transiently expressing mCherry, mCherryGRwt, GFP and/or GFP-p65; 300 nM Cort and/or 10 ng/ml TNF-α; nuclear brightness ε in the green and red channels
Settings: remark: other sources report otherwise

stoichiometry N: 2
B1: GFP-p65, Q04206 1-551 (natural protein)
chain: MDELFPLIFPAEPAQASGPYVEIIEQPKQRGMRFRYKCEGRSAGSIPGERSTDTTKTHPTIKINGYTGPGTVRISLVTKDPPHRPHPHELVGKDCRDGFYEAELCPDRCIHSFQNLGIQCVKKRDLEQAISQRIQTNNNPFQVPIEEQRGDYDLNAVRLCFQVTVRDPSGRPLRLPPVLSHPIFDNRAPNTAELKICRVNRNSGSCLGGDEIFLLCDKVQKEDIEVYFTGPGWEARGSFSQADVHRQVAIVFRTPPYADPSLQAPVRVSMQLRRPSDRELSEPMEFQYLPDTDDRHRIEEKRKRTYETFKSIMKKSPFSGPTDPRPPPRRIAVPSRSSASVPKPAPQPYPFTSSLSTINYDEFPTMVFPSGQISQASALAPAPPQVLPQAPAPAPAPAMVSALAQAPAPVPVLAPGPPQAVAPPAPKPTQAGEGTLSEALLQLQFDDEDLGALLGNSTDPAVFTDLASVDNSEFQQLLNQGIPVAPHTTEPMLMEYPEAITRLVTGAQRPPDPAPAPLGAPGLPNGLLSGDEDFSSIADMDFSALLSQISS
